# Measured values taken from US12473284B2, “Small molecule inhibitors of ULK1” (Memorial Sloan Kettering Cancer Center, priority 2019, dated 2025).
# By UniProt entry, the sequences of proteins in these tests, tags left out.
# UniProt O75385, whole entry: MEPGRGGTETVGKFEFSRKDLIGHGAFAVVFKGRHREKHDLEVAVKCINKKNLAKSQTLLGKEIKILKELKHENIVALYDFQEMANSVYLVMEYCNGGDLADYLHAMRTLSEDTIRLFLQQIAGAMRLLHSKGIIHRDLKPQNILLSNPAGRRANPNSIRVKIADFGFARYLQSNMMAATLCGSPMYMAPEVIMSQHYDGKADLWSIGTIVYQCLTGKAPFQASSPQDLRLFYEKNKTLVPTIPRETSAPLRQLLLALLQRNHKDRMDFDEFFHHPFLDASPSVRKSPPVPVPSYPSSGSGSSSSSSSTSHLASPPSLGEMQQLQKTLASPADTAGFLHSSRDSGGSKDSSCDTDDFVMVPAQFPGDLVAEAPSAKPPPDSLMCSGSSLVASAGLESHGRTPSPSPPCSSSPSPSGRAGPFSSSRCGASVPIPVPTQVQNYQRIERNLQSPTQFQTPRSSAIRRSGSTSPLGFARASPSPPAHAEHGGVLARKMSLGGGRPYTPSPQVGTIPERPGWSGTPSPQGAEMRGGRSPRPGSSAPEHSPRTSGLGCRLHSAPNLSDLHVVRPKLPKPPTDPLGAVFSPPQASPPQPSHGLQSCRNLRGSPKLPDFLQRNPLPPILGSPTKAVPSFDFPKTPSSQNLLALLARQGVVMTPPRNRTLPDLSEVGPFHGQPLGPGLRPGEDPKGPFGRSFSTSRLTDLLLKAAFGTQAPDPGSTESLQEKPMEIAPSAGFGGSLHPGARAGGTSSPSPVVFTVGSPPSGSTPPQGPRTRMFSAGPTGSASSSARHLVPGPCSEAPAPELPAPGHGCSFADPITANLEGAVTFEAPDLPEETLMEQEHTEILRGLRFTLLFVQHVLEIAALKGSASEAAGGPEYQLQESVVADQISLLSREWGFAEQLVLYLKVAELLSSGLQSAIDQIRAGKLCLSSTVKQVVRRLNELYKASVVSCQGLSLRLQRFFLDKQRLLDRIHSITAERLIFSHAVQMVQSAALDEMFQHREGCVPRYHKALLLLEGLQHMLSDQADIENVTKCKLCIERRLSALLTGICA
# UniProt O75143, whole entry partner: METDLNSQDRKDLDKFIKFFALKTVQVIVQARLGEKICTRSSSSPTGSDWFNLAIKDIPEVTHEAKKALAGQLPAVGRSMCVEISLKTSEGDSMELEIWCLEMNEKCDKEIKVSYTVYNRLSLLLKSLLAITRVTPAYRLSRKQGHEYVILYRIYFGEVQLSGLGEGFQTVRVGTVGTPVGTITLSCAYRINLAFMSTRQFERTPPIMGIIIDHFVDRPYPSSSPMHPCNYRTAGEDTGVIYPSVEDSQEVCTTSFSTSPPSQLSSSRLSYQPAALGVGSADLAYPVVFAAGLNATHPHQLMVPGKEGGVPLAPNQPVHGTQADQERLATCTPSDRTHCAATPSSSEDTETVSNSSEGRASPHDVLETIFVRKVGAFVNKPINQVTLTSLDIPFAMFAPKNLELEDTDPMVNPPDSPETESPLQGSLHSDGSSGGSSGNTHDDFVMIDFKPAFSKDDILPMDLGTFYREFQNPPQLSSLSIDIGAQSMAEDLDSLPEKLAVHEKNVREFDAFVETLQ
# Target: ULK1/Atg13 kinase complex (Homo sapiens (Human), UniProt O75385)
# Assay: In vitro kinase assay (Kinase-Glo Plus luminescence, MBP 1-20 peptide substrate)
# Details: recombinant His-tagged ULK1/Atg13, 75 min at room temperature; salt form as in Table 1
# Method: In vitro kinase assays were performed as described below:
# Recombinant His-tagged ULK1/Atg13 kinase complex was expressed in […] insect cells, and affinity-purified by Ni-NTA beads, aliquoted and stored at −80° C.
# Compounds were dissolved in DMSO to make 10 mM stock solution, aliquoted and stored at −80° C.
# 1× kinase buffer was prepared: 20 mM Tris-HCl, pH7.5, 100 mM NaCl, 5 mM MgCl2, 0.5 mg/ml BSA, 5 mM DTT, 0.1% Tween-20.
# For compound screening experiment, 1 μl of the 10 mM compound stock solution was added using P2.5 pipette into 99 μl 1×kinase buffer to make 100 μM working solution.
# For compound titration experiment, 100 μM compound solution was further diluted (with 1×kinase buffer containing 1% DMSO) in a series manner.
# 30 mM MBP (Myelin basic protein) 1-20 peptide (sequence: […]; SEQ ID NO: 1) was prepared in 1× kinase buffer.
# 500 μM ATP was prepared in 1× kinase buffer.
# Pre-incubation reactions were set up as shown in the Table below and pre-incubated for 10 min at room temperature.
# 4 μl of 500 μM ATP was added to the pre-incubation reaction (thus the final reaction volume is 20 μl) and incubated for 75 min at room temperature.
# 20 μl Kinase-Glo Plus (Promega) was added to the reaction (warmed to RT), mixed well and incubated at room temperature for 15 min.
# 20 μl reaction was pipetted into each well of a white 384-well plate.
# the 384-well plate was subjected to brief centrifugation, and luminescence was read in a plate reader.
# Calculated inhibition (%) was calculated as follows: […]
row,IC50 [nM],Structure (SMILES)
1,352,"CC(N)C1CCC(C(=O)Nc2ccnc3[nH]c(-c4nccs4)cc23)CC1 (single isomer, unassigned) [MSK-A178_Peak 1]"
2,89.1,"CC(N)C1CCC(C(=O)Nc2ccnc3[nH]c(-c4nccs4)cc23)CC1 (single isomer, unassigned) [MSK-A178_Peak 2]"

# Same assay, conditions: recombinant His-tagged ULK1/Atg13, 75 min at room temperature; salt form as in Table 1; tested form: HCl
row,Structure (SMILES),IC50 [nM]
1,CC(N)[C@H]1CC[C@H](C(=O)Nc2ccnc3[nH]c(-c4ccc(C(F)(F)F)cc4)cc23)CC1 (stereo partly shown),40.5
2,CC(N)[C@H]1CC[C@H](C(=O)Nc2ccnc3[nH]c(-c4ccc(C5CC5)cc4)cc23)CC1 (stereo partly shown),29.8
3,CC(N)[C@H]1CC[C@H](C(=O)Nc2ccnc3[nH]c(-c4ccccc4F)cc23)CC1 (stereo partly shown),25.7

# Further lines, results first:
row,IC50 [nM],Structure (SMILES)
1,39.2,CC(N)[C@H]1CC[C@H](C(=O)Nc2ccnc3[nH]c(-c4ccc(F)c(F)c4)cc23)CC1 (stereo partly shown)
2,12.1,Cc1ccc(-c2cc3c(NC(=O)[C@H]4CC[C@H](C(C)N)CC4)ccnc3[nH]2)cc1 (stereo partly shown)
3,43.3,CC(N)[C@H]1CC[C@H](C(=O)Nc2ccnc3[nH]c(-c4ccoc4)cc23)CC1 (stereo partly shown)
4,20.8,CC(N)[C@H]1CC[C@H](C(=O)Nc2ccnc3[nH]c(-c4cccc(C#N)c4)cc23)CC1 (stereo partly shown)
5,15.6,COc1cccc(-c2cc3c(NC(=O)[C@H]4CC[C@H](C(C)N)CC4)ccnc3[nH]2)c1 (stereo partly shown)
